Reference: ChEMBL document CHEMBL1124519 (J Med Chem, 1989)

Tests used:
L1210 [1] = assay: The cytotoxicity (LC99) was evaluated in vitro against L1210 cells obtained from cultured mice
Homo sapiens = species: Homo sapiens; assay: Half-life period obtained from linear regression of metabolite concentration in Human plasma containing 100 mM phosphate, at pH 7.4
[2] = Half-life period obtained from linear regression of metabolite concentration in aqueous buffer of pH 7.4 at 37 degrees Celsius in 100 mM phosphate buffer.
[3] = Half-life period obtained from linear regression of metabolite concentration in aqueous buffer of pH 7.4 at 37 degrees Celsius in 100 mM HEPES buffer.
L1210 [4] = assay: The cytotoxicity (LC99) was evaluated in vitro against L1210 cells obtained from cultured mice.

Row | SMILES | LC99 (L1210 [1]) | T1/2 (Homo sapiens) | T1/2 [2] | T1/2 [3] | LC99 (L1210 [4])
1 | NP(=O)(O)N(CCCl)CCCl | 169 µM | – | – | – | –
2 | CN1C(O)CCOP1(=O)N(CCCl)CCCl.CNP(=O)(OCCC=O)N(CCCl)CCCl (centres undefined) | – | 37 min | > 200 min | – | –
3 | CNP(=O)(O)N(CCCl)CCCl | – | – | – | 12 min | –
4 | NP(=O)(OCCC=O)N(CCCl)CCCl.O=P1(N(CCCl)CCCl)NC(O)CCO1 (centres undefined) | – | 14 min | 44 min | – | 12.1 µM
5 | O=CCCOP(=O)(NCCCl)N(CCCl)CCCl.O=P1(N(CCCl)CCCl)OCCC(O)N1CCCl (centres undefined) | – | 9 min | 40 min | – | –
